Earlier results in patent EP0721734A1, “PESTICIDE COMPOSITION” (NIPPON SODA CO., LTD., priority 1993, dated 1995).

SMILES	water solubility [ppm]
CNC(=O)Oc1cccc2c1OC(C)(C)C2 [Carbofran]	700
CCC1COC(Cn2cncn2)(c2ccc(Cl)cc2Cl)O1 (centres unmarked) [Ethaconasole]	80
